How the values were obtained:
[1] = target: Mu-type opioid receptor (Homo sapiens) (UniProt P35372); assay: Displacement of [3H]-DAMGO from recombinant human MOR expressed in CHO cell membranes after 60 mins by liquid scintillation counting
Summary of the method: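 Competition binding on membranes from CHO cells stably transfected with recombinant human MOR. Affinity is reported as Ki. Values are mean ± SEM of at least three independent experiments.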

By UniProt entry, the sequences of proteins in these tests, tags left out.
UniProt P35372, whole entry: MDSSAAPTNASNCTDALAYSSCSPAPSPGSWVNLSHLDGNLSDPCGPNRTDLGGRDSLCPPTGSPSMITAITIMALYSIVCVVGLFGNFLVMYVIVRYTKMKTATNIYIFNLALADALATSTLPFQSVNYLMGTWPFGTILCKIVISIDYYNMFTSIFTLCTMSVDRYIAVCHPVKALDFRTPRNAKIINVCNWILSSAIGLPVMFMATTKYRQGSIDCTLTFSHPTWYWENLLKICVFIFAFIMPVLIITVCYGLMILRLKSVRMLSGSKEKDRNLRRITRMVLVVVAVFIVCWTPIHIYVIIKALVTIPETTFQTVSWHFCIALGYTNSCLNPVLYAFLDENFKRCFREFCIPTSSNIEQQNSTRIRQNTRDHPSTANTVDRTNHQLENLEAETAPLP

[2] = target: Mu-type opioid receptor (Homo sapiens) (UniProt P35372); assay: Agonist activity at recombinant human MOR expressed in CHO cell membranes after 60 mins by [35S]GTPgammaS binding assay; type: functional
Summary of the method: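 [35S]GTPγS binding stimulated by ligand in membranes from CHO cells stably expressing human MOR. Values are mean ± SEM of at least three independent experiments.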

With `CO[C@@]12CCC[C@]3(C)Oc4c(O)ccc5c4[C@@]31CCN(C)[C@@H]2C5` the inhibition [1] was “Dose-dependent effect” and the Activity [2] was “Dose-dependent effect”.
